# Assays:
# [1] = tested on: Rhizoctonia solani; experiment: Greenhouse suppression of damping off of cucumber seedlings in R. solani infested soil amended with plant extract; type: in vivo, Rhizoctonia solani AG-4, isolate Rs 23A; conditions: 12 seeds sown per pot, infested soil amended with 0.3% PE
# [2] = tested on: cucumber seeds; conditions: in vivo, 0.3 % of PE in soil (3000 ppm)
# Description: Soil treatment: For each treatment, 300 g of dry greenhouse soli (Pro-mix, Premier Horticulture LTD, Red Hill, Pa.) was thoroughly mixed with Rhizoctonia inoculum and incubated for 15 days as described above. […] The infested soil treated with only the carrier solution served as an untreated control. Following the treatment, the soil was thoroughly stirred to mix the contents and incubated in a double polythene bag closed tightly in the dark at room temperature for four days for fumigation to occur. Following the incubation, the bag was opened to allow as much PE to dissipate as possible. This was done by sprinkling the surface soil with sterile water every other day, and stirring the soil once every day for seven days. For assay of effect on seed germination and phytotoxicity of the plant extracts, soil was treated with plant extract formulations alone.
# Greenhouse studies: Treated soil from each treatment was distributed to 4-inch plastic pots into which 12 seeds of cucumbers (95-100% germination) were sown and lightly watered to keep soil moist. The treatments were color coded and pots were randomized across treatment. All plants were kept in a greenhouse between 20° C. (night) to 26° C. (day) with 14 h of light. […] Total number of seedlings without any sign of damping off in each pot was recorded and percentage of disease suppression were calculated four weeks after sowing cucumber seeds.
SMILES,Avg. seed Germination (+ PE + R. solani) [1],% Seed germination (+ PE only) [2] [%]
Cc1ccc(C(C)C)cc1O [Carvacrol],5.67,–
Cc1ccc(C(C)C)c(O)c1 [Thymol],–,66.67
C=CCc1ccc(O)c(OC)c1 [Eugenol],–,83.33

# Reference: patent US8871280B1, “Compositions and methods for treating fungal activity in plants or soil” (The United States of America, as represented by the …, priority 2011, dated 2014)
